Test results reported in patent publication US20210156868A1, “COMPOSITIONS AND METHODS FOR DETECTING ALBUMIN” (Tournament BioVenture LLC, priority 2019, published 2021).

By UniProt entry, the sequences of proteins in these tests, tags left out. Residues count along the entry.
UniProt P02768, 25-609: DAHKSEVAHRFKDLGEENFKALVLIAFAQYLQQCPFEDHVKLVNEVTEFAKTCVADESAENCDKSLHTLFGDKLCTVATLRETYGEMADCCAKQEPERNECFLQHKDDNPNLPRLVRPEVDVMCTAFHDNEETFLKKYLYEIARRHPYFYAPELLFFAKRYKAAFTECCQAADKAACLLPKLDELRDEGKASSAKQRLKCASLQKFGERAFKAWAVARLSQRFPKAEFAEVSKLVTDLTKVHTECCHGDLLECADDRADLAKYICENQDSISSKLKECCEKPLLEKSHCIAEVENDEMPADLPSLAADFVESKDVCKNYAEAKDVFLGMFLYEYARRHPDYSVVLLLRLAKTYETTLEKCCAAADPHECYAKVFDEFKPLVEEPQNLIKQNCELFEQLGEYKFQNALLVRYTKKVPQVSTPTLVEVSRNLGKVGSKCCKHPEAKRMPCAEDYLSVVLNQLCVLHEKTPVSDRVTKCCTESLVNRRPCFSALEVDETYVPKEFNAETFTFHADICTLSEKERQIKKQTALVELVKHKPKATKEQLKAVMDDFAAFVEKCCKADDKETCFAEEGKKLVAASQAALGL

Molecular target: HSA pseudo esterase activity (Homo sapiens, UniProt P02768)
Details: inhibitor 15-20 mM final concentration; 1.5 mM 14:0 NPS-PC, pH 7.4

Structure (SMILES): Cl.NCCc1ccc(S(=O)(=O)F)cc1 [Pefabloc SC, 4-(2-aminoethyl)benzenesulfonyl fluoride hydrochloride]
- albumin pseudo esterase activity maintained: > 90%
